Chains of the proteins cited; added tags and fusions are not shown.
ATP-dependent Clp protease proteolytic subunit (Bacillus subtilis (strain 168)), P80244, UniProt P80244, whole entry, looked up: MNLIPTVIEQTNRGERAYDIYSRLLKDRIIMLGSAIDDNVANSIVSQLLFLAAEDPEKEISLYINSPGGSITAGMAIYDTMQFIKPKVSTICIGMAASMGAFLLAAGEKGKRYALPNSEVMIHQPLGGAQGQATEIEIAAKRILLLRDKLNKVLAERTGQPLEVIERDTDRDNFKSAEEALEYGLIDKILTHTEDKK

# CBFb RUNX1 block: inhibitors of human CBF-beta and RUNX1 interaction; Q01196+Q13951; AlphaScreen CBFb-His/RUNX1-biotin binding, biochemical; Potency, µM (doses to about 59.8 µM), most hits filed as inhibitors; 230,000 tested, under 10 active; AID 1477; active means well fitted curve in the direction sought with a large enough effect; inconclusive means small, poorly fitted or top-dose-only effect, or effect the other way, or another doubt; inactive means no such curve, though single readings can be large or run the other way
#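 AlphaScreen binding: CBFb-His and RUNX1-biotin (30 nM each) preincubated 20 min, compound added for 15 min, then nickel and streptavidin beads for 90 min, all at room temperature. Disruption of the interaction by any mechanism counts as activity.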
# ClpP mod: qHTS Assay for Activators of ClpP; ATP-dependent Clp protease proteolytic subunit (Bacillus subtilis (strain 168)), P80244; purified B. subtilis ClpP, FRET peptide cleavage, 20 min; Potency, µM (doses to about 57.5 µM); actives 1.9% (n = 340,000); AID 651965, 2013; active means well fitted falling curve with a large enough effect; inconclusive means small, poorly fitted or top-dose-only effect; inactive means no such curve, though single readings can be large or run the other way; further: the source files actives as falling curves though it sought activators and does not explain the sign; nearly all actives have a fitted effect of over 65% in size
#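 Purified B. subtilis ClpP, 10 microg/mL final in Tris/HCl pH8 with KCl, BSA, glycerol and Tween-20, cleaved an Abz/nitrotyrosine-quenched decapeptide. Fluorescence (ex 320, em 430) was read at 0 and 20 min at room temperature. Delta was normalized to 5.8 microM ADEP and DMSO/no-enzyme controls.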
# Rango dissoc inh: inhibition of RanGTP-driven Rango-importin beta dissociation; Biochemical FRET Rango-importin beta, RanGTP-induced dissociation; actives 0.071% (n = 340,000); O95149+P62826; Potency, µM (top dose mostly 46.1 µM); further: nearly all actives have a fitted effect of over 45% in size
#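 Rango (0.1 uM)–importin beta (0.25 uM) complex; RanGTP-RCC1 trigger; 45 min RT; CFP/YFP FRET read.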
# MBNL1-CUG inh: blocks human MBNL1 binding to CUG repeat RNA; Q9NR56; AID 2675; TR-FRET MBNL1-His/biotin-(CUG)12 binding, 665/545 ratio; actives 0.036% (n = 280,000); Potency, µM (highest dose often 57.5 µM), actives largely listed as inhibitors; active means well fitted inhibition curve with a large enough effect in the signal ratio, with a control signal flat, not every such curve was filed as active; inconclusive means small, poorly fitted or top-dose-only effect, or effect the other way, or a change in a side signal; inactive means no such curve, though single readings can be large or run the other way; the % refers to the signal ratio
#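 Ratiometric TR-FRET (665 over 545 nm, excitation 340 nm) tracks disruption of MBNL1-His/biotin-(CUG)12 complex after 60 min at room temperature, with compounds at 92 nM to 58 uM final.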
# Rango complex inh: Rango-importin beta binding inhibition | Rango CFP/YFP FRET sensor + importin beta, 45 min | Potency, µM (series often up to 92.2 µM) | actives 0.031% (n = 340,000) | AID 540263; further: nearly all actives have a fitted effect of over 15% in size
#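 Inhibition scored from the CFP 486 nm/YFP 530 nm FRET ratio 45 min after adding 0.125 microM importin beta to 50 nM Rango biosensor preincubated 5 min with compound (room temperature, PBS with DTT, Tween-20, BSA). No-importin wells as positive control.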
# Hits are given with their value; - = inactive; ? = inconclusive; . = not tested or not shown; [ ] = remark or other dose. The sample as a whole holds a higher share of hits than the screen did. Unless noted, the call rests on the fitted dose curve.
SMILES,CBFb RUNX1 block,ClpP mod,Rango dissoc inh,MBNL1-CUG inh,Rango complex inh
CCOC(=O)c1cc2c(=O)n3ccccc3nc2n(CCCOC)c1=NC(C)=O,-,35.5µM,?,?,?
CCOC(=O)c1cc2c(=O)n3cccc(C)c3nc2n(CC2CCCO2)c1=NC(C)=O (stereo unspecified),.,1.26µM,?,.,?
CCCn1c(=NC(=O)c2ccco2)c(C(=O)OCC)cc2c(=O)n3ccccc3nc21,-,17.8µM,?,?,?
CCC(C)NC(=O)c1[nH]c2cc(OC)ccc2c1Sc1ccc(C)cc1 (stereo unspecified),.,28.2µM,.,.,.
COc1ccc2c(Sc3ccccc3)c(C(=O)NCC(C)c3ccccc3)[nH]c2c1 (stereo unspecified),.,-,.,.,.
Cc1ccc(CNC(=O)c2c[nH]c3ccc(S(=O)(=O)N4CCOCC4)cc3c2=O)cc1,.,28.2µM,.,.,.
CN(Cc1ccccc1)C(=O)c1c[nH]c2ccc(S(=O)(=O)N3CCOCC3)cc2c1=O,-,31.6µM,-,-,-
O=C(NCc1ccc2c(c1)OCO2)c1c[nH]c2ccc(S(=O)(=O)N3CCOCC3)cc2c1=O,-,?,-,-,-
Cc1ccc(C)c(N(C)S(=O)(=O)c2ccc3[nH]cc(C(=O)NCCN4CCOCC4)c(=O)c3c2)c1,-,17.8µM,-,-[11.5 µM],-
COCCNC(=O)c1c[nH]c2ccc(S(=O)(=O)N3CCOCC3)cc2c1=O,.,-,-,-,-
COCCCNC(=O)CSc1nc2ccccc2c(=O)n1Cc1ccc2c(c1)OCO2,-,28.2µM,-,-,-
COCCCNC(=O)CSc1nc2cc(C(=O)NCCOC)ccc2c(=O)n1Cc1ccc2c(c1)OCO2,.,-,-,-,-
COCCn1c(SCC(=O)NNC(=O)c2ccccc2)nc2ccccc2c1=O,-,28.2µM,-,-,-
COc1ccc(C(NC(=O)c2cccnc2)c2cc(Cl)c3cccnc3c2O)cc1OC (stereo unspecified),-,-,?,-,36.6µM
COc1ccc(Cl)cc1NC(=O)C(C)n1c(=O)cc(C(F)(F)F)c2c(C)nn(C)c21 (stereo unspecified),.,-,.,.,.
COc1ccc(OC)c(-c2nnc3n2N=C(c2ccccc2OC)CS3)c1,-,.,.,.,.
Cc1nn(Cc2ccccc2)c(C)c1CNC(=O)CN=C1NS(=O)(=O)c2ccccc21,.,22.4µM,-,.,-
COc1cc(/C=C/C(=O)Nc2nnc(C(C)(C)C)s2)cc(OC)c1OC,-,31.6µM,?,-,-
COc1cc(/C=C/C(=O)Nc2nc3ccc(S(=O)(=O)N(C)C)cc3s2)cc(OC)c1OC,-,7.94µM,?,-,?
Cc1ccc(-n2c(=O)c3ccc(C(=O)NCc4ccccc4Cl)cc3n(CC(=O)Nc3ccc(C)cc3C)c2=O)cc1,.,-,.,.,.
CCCCCC[n+]1ccccc1/C=C/c1ccc(N(C)C)cc1,.,-,.,.,.
CC[n+]1ccccc1/C=C/c1ccc(N(C)C)cc1,-,-,?,?,8.2µM
CCN(C(=O)C1CCC(CNS(=O)(=O)c2cccc3nsnc23)CC1)c1ccccc1 (stereo unspecified),.,-,.,.,.
COc1ccc(-c2c3c(nc4sc5c(=O)[nH]c(C)nc5c24)CCC3)cc1,-,28.2µM,-,-,-
Cc1cc2c(c(=O)n1C)C(Cc1ccccc1)C(C#N)=C(N)O2 (stereo unspecified),-,28.2µM,?,?,?
SMILES,CBFb RUNX1 block,ClpP mod,Rango dissoc inh,MBNL1-CUG inh,Rango complex inh
CCCC1C(C#N)=C(N)Oc2cc(C)n(C)c(=O)c21 (stereo unspecified),-,31.6µM,?,?,?
CCn1c(C)cc2c(c1=O)C(c1ccncc1)C(C#N)=C(N)O2 (stereo unspecified),-,-,-,-,-
CC(NC(=O)CN1C(=O)COc2ccc(Cl)cc21)c1ccccc1 (stereo unspecified),.,-,.,.,.
CCc1sc(-c2cc3cccc(OC)c3oc2=O)nc1-c1cc(C)ccc1C,.,-,.,.,.
O=C(COc1ccc([N+](=O)[O-])cc1)Nc1cc(S(=O)(=O)N2CCCCC2)ccc1N1CCCCC1,.,-,-,.,-
O=C(COc1ccc(F)cc1)Nc1cc(S(=O)(=O)N2CCCCC2)ccc1N1CCCCC1,.,15.8µM,-,.,?
CNC(=S)N(CCc1ccccc1)Cc1cc2cc(OC)c(OC)cc2[nH]c1=O,-,35.5µM,-,.,-
CC(=O)N(CCc1ccccc1C)Cc1cc2cc3c(cc2[nH]c1=O)OCO3,-,28.2µM,-,-,-
CCNC(=S)N(CCc1cccc(C)c1)Cc1cc2cc(OC)c(OC)cc2[nH]c1=O,-,17.8µM,-,-,-
COc1cc2cc(CN(CCc3ccccc3C)C(=S)NCCCN(C)C)c(=O)[nH]c2cc1OC,-,14.1µM,-,-,-
CCNC(=S)N(CCc1ccccc1C)Cc1cc2cc(OC)c(OC)cc2[nH]c1=O,-,?,-,-,-
Nc1nc(-c2nn(Cc3ccccc3F)c3ncccc23)ncc1C1CC1,-,.,.,.,.
Cc1ccc(C)c(CN2C(=O)c3ccccc3S(=O)c3ccc(C(=O)NCCc4ccc(Cl)cc4)cc32)c1 (stereo unspecified),.,-,.,.,.
Cc1cccc2sc(N(Cc3cccnc3)C(=O)CCS(=O)(=O)c3ccccc3)nc12,.,-,.,.,.
COc1ccc2cc(CN(CCO)C(=O)c3ccc(Br)cc3)c(=O)[nH]c2c1,-,-,-,-,-
COc1ccc2cc(CN(CCO)C(=O)c3ccccc3F)c(=O)[nH]c2c1,-,?,-,-,-
CCOc1ccc2[nH]c(=O)c(CN(CCO)C(=O)c3ccccc3F)cc2c1,-,31.6µM,-,-,-
CCOc1ccc2[nH]c(=O)c(CN(CCO)C(=O)c3ccc(OC)c(OC)c3)cc2c1,-,28.2µM,-,-,-
CCOc1ccc2[nH]c(=O)c(CN(CCO)C(=O)c3ccc(F)cc3)cc2c1,-,22.4µM,-,-,?
CCCCCCCC1=CC2=C(Cl)C(=O)C(C)(OC(C)=O)C(=O)C2=CN1C (stereo unspecified),-,.,.,.,.
COc1cc(N(C)C)c(OC)cc1C=C1C=CC=C1,.,-,.,.,.
CCN(CC)c1ccc(-c2nn3c(-c4ccccc4OC)nnc3s2)cc1,-,7.94µM,-,-,?
Cc1ccc(CN(Cc2ccco2)C(=O)c2oc3c(C)c(C)ccc3c2C)cc1,.,-,.,.,.
Cc1ccc(-c2csc3ncnc(Oc4ccc5c(C)cc(=O)oc5c4)c23)cc1,?,28.2µM,-,-,-
CN(c1ccc(C(=O)NCCc2ccccc2)cc1)S(C)(=O)=O,-,-,-,-,-
CN(c1ccc(C(=O)NCCSC(C)(C)C)cc1)S(C)(=O)=O,-,10µM,-,-,-
CCN1CCN(S(=O)(=O)c2ccc(Cl)c(C(=O)NC(C)c3ccccc3Cl)c2)CC1 (stereo unspecified),.,35.5µM,-,.,-

# Compound activity as filed in PubChem.
